One compound from patent US9242993B2, “Morpholino substituted bicyclic pyrimidine urea or carbamate derivatives as mTOR inhibitors” (CELLZOME LIMITED, priority 2011, dated 2016) can be followed below.

The chains behind the UniProt entries cited, without tags or fusion partners. Where a name states a change or a piece, a line headed by the entry shows the natural chain unless it says otherwise.
UniProt P42336, whole entry: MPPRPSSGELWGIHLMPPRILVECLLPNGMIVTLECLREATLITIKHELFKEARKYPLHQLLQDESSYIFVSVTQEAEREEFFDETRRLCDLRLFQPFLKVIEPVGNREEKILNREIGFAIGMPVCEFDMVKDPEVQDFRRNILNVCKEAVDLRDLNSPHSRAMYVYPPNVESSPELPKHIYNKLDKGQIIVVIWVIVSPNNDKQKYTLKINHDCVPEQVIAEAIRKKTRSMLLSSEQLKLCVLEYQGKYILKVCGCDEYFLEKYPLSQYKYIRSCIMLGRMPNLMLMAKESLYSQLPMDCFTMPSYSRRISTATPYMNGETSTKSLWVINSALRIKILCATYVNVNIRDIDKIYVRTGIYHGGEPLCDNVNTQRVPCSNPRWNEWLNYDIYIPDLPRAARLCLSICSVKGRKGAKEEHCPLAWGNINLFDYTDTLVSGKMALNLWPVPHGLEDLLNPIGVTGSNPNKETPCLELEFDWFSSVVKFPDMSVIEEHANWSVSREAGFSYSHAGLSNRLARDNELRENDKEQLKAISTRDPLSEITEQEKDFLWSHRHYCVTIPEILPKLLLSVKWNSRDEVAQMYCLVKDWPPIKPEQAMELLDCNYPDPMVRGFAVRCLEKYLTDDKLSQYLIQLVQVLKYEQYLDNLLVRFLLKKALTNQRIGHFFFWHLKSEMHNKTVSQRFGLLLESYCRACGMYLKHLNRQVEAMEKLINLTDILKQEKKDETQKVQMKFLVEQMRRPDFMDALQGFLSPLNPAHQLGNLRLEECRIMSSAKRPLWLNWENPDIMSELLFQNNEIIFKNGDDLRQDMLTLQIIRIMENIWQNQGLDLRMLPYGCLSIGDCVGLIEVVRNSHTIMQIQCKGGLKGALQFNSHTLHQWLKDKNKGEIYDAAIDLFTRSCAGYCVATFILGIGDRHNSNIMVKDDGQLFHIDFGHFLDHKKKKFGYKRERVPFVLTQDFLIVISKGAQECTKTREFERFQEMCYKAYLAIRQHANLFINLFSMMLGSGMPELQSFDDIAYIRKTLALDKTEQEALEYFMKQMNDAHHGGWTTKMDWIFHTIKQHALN
UniProt P42338: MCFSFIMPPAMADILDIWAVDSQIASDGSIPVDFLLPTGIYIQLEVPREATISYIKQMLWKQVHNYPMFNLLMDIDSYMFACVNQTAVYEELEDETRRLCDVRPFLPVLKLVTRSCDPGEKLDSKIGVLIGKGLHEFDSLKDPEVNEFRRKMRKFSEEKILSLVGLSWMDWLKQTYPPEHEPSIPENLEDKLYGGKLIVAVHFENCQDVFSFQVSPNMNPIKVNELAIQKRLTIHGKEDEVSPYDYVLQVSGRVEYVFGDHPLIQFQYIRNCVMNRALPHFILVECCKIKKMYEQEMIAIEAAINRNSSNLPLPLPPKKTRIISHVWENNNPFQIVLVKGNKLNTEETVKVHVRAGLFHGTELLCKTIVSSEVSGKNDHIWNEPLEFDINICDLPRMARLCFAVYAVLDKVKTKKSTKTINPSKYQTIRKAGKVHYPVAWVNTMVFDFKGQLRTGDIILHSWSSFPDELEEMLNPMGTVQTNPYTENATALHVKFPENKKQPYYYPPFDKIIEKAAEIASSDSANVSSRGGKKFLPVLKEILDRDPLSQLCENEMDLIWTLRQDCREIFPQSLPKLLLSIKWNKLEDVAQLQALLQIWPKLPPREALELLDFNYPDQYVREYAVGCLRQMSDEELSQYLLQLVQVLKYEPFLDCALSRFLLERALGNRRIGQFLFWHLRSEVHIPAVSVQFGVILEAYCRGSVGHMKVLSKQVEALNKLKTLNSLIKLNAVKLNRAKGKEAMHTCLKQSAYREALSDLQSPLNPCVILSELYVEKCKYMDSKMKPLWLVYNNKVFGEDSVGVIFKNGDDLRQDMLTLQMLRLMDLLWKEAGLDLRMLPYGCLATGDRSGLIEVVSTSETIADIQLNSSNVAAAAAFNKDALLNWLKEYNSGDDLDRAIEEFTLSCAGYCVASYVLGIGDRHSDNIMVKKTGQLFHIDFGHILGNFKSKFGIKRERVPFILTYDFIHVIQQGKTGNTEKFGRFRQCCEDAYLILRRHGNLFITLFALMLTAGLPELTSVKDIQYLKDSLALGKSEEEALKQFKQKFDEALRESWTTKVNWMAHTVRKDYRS

One assay deals with PI3K alpha (PI3Ka) (Homo sapiens, UniProt P42336). The assay can be described thus: kinobeads assay, PI3K alpha. Conditions: Jurkat cell lysate, read-out: PI3Ka inhibition value (IC50), activity level. In kind it is binding.
A further assay concerns the target PI3K beta (PI3 Kb) (Homo sapiens, UniProt P42338). The assay can be described thus: kinobeads assay, PI3K beta. Conditions: Jurkat cell lysate, read-out: PI3Kb inhibition value (IC50), activity level. In kind it is binding.

The IC50 is the concentration that inhibits the measured activity by half. For the compound `CCNC(=O)Nc1ccc(-c2nc3c(c(N4CCOC[C@@H]4CC)n2)[C@H](C)S(=O)(=O)C3)cc1` [Example 53, 1-ethyl-3-(4-((S)-4-((S)-3-ethylmorpholino)-5-methyl-6,6-dioxido-5,7-dihydrothieno[3,4-d]pyrimidin-2-yl)phenyl)urea], the IC50 at PI3K alpha (PI3Ka) and on PI3K beta (PI3 Kb) was more than 10 µM in each case.
